Values quoted from earlier work in patent publication US20170003257A1, “WETNESS INDICATOR WITH TWO COLORANTS AND TWO STABILIZERS” (The Procter & Gamble Company, priority 2015, published 2017).

Details: Table 2 stabilizers, first pKa

O=[N+]([O-])c1cc([N+](=O)[O-])c(O)c([N+](=O)[O-])c1
pKa (1): 0.4

Only a part of the results on these compounds is given; other tests are left out.
